Results from ChEMBL document CHEMBL5136963, “Illuminating the norepinephrine transporter: fluorescent probes based on nisoxetine and talopram” (RSC Med Chem, 2021).

By UniProt entry, the sequences of proteins in these tests, tags left out.
UniProt Q9WTR4, whole entry: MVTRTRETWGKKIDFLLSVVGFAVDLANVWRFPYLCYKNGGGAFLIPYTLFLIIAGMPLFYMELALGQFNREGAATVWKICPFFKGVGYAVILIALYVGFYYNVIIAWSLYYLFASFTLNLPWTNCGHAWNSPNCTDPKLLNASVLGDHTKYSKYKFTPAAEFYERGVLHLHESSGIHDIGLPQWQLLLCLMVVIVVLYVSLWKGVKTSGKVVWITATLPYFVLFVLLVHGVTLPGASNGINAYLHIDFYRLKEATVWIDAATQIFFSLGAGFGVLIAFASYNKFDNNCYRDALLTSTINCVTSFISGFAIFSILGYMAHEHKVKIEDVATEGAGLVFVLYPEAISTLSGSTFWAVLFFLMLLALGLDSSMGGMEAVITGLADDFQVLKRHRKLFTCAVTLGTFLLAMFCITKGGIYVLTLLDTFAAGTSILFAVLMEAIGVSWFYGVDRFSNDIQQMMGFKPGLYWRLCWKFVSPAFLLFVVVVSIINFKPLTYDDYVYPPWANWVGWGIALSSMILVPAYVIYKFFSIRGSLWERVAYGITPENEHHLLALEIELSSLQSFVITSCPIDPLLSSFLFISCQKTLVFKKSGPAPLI

Target: Norepinephrine transporter (Rattus norvegicus, UniProt Q9WTR4)
Assay: Displacement of [3H]-nisoxetine from NET in Sprague-Dawley rat brain prefrontal cortex incubated for 180 mins by radioligand binding assay
Format: tissue-based

- Ki: 1.5 nM
SMILES: CNCCC(Oc1ccccc1OC)c1ccccc1 (stereo unspecified) [NISOXETINE]
